Results published in ChEMBL document CHEMBL5506040, “Design of FK866-Based Degraders for Blocking the Nonenzymatic Functions of Nicotinamide Phosphoribosyltransferase” (J Med Chem, 2024).

Chains of the proteins cited; added tags and fusions are not shown. Lines headed by an entry give the natural chain unless they say otherwise; changes in a name come on top.
UniProt Q99KQ4: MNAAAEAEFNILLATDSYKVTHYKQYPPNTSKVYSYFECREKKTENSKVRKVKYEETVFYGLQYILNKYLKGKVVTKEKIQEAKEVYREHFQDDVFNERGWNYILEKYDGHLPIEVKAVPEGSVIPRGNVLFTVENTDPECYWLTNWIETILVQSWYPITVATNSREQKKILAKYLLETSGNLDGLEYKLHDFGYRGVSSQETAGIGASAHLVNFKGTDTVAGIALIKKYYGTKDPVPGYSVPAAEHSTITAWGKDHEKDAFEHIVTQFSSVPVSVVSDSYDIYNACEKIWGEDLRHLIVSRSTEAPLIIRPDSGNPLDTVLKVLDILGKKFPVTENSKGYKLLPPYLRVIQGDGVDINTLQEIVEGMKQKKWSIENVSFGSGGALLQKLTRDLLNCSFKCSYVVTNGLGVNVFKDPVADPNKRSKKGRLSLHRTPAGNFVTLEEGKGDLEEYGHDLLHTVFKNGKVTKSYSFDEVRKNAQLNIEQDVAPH
UniProt P40338, whole entry, looked up: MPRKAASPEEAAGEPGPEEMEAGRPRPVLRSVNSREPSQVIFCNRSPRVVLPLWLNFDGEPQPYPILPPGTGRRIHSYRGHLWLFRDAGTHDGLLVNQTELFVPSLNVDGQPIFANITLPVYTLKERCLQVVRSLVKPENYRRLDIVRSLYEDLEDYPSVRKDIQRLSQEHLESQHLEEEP

Legend:
Format in all cases: cell-based
[1] = biological target: T1, von Hippel-Lindau disease tumor suppressor/Nicotinamide phosphoribosyltransferase (Mus musculus) (UniProt Q99KQ4+P40338); experiment: PROTAC activity at VHL/NAMPT in mouse CT26 cells assessed as induction of intracellular NAMPT degradation by measuring fold change at 5 uM incubated for 2 hrs by Western blot analysis
[2] = biological target: T1, von Hippel-Lindau disease tumor suppressor/Nicotinamide phosphoribosyltransferase (Mus musculus); experiment: PROTAC activity at VHL/NAMPT in mouse CT26 cells assessed as induction of intracellular NAMPT degradation by measuring fold change at 0.1 uM incubated for 24 hrs by Western blot analysis
[3] = biological target: T1, von Hippel-Lindau disease tumor suppressor/Nicotinamide phosphoribosyltransferase (Mus musculus); experiment: PROTAC activity at VHL/NAMPT in mouse CT26 cells assessed as induction of intracellular NAMPT degradation by measuring fold change at 0.5 uM incubated for 24 hrs by Western blot analysis
[4] = biological target: T1, von Hippel-Lindau disease tumor suppressor/Nicotinamide phosphoribosyltransferase (Mus musculus); experiment: PROTAC activity at VHL/NAMPT in mouse CT26 cells assessed as induction of intracellular NAMPT degradation by measuring fold change at 1 uM incubated for 24 hrs by Western blot analysis
[5] = biological target: T1, von Hippel-Lindau disease tumor suppressor/Nicotinamide phosphoribosyltransferase (Mus musculus); experiment: PROTAC activity at VHL/NAMPT in mouse CT26 cells assessed as induction of intracellular NAMPT degradation by measuring fold change at 5 uM incubated for 24 hrs by Western blot analysis
[6] = biological target: T1, von Hippel-Lindau disease tumor suppressor/Nicotinamide phosphoribosyltransferase (Mus musculus); experiment: PROTAC activity at VHL/NAMPT in mouse CT26 cells assessed as induction of intracellular NAMPT degradation by measuring fold change at 5 uM incubated for 6 hrs by Western blot analysis
[7] = biological target: T1, von Hippel-Lindau disease tumor suppressor/Nicotinamide phosphoribosyltransferase (Mus musculus); experiment: PROTAC activity at VHL/NAMPT in mouse CT26 cells assessed as induction of intracellular NAMPT degradation by measuring fold change at 5 uM incubated for 12 hrs by Western blot analysis

SMILES: Cc1ncsc1-c1ccc([C@H](C)NC(=O)[C@@H]2C[C@@H](O)CN2C(=O)[C@@H](NC(=O)COCCOCCOCCOCCNC(=O)c2ccc(C(=O)N3CCC(CCCCNC(=O)/C=C/c4cccnc4)CC3)cc2)C(C)(C)C)cc1
- fold change (FC) [1]: 1.12
- fold change (FC) [2]: 0.95
- fold change (FC) [3]: 0.77
- fold change (FC) [4]: 0.46
- fold change (FC) [5]: 0.16
- fold change (FC) [6]: 0.72
- fold change (FC) [7]: 0.48
